Experiment [1] has as its target T1, 17-beta-hydroxysteroid dehydrogenase type 2 (Homo sapiens) (UniProt P37059).
T1 sequence (whole entry): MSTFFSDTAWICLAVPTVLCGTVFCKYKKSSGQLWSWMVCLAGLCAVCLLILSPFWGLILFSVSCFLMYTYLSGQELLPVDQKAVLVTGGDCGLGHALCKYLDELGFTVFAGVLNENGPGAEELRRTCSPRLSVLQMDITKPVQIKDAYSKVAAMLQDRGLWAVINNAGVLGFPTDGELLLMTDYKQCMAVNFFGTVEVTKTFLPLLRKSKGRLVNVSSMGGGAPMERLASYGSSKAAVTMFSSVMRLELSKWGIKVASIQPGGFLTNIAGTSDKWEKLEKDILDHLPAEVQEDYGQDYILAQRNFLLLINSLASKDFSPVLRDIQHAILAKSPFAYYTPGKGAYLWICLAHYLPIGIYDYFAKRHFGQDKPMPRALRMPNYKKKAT
Conditions: 100 nM.

Experiment [2] has as its target T2, 17-beta-hydroxysteroid dehydrogenase type 1 (Mus musculus) (UniProt P51656).
T2 sequence (whole entry): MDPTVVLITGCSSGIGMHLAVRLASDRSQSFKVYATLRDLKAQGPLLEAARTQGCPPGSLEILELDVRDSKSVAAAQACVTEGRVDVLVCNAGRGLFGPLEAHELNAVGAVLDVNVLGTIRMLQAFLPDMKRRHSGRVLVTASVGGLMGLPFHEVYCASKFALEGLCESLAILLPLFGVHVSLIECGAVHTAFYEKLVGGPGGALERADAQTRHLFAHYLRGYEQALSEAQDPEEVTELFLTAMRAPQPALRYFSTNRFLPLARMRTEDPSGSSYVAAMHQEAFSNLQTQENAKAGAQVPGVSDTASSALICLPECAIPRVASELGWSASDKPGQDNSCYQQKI
Conditions: at 1000 nM.

Experiment [3] concerns the target T3, Estradiol 17-beta-dehydrogenase 2 (Mus musculus) (UniProt P51658).
T3 sequence (whole entry): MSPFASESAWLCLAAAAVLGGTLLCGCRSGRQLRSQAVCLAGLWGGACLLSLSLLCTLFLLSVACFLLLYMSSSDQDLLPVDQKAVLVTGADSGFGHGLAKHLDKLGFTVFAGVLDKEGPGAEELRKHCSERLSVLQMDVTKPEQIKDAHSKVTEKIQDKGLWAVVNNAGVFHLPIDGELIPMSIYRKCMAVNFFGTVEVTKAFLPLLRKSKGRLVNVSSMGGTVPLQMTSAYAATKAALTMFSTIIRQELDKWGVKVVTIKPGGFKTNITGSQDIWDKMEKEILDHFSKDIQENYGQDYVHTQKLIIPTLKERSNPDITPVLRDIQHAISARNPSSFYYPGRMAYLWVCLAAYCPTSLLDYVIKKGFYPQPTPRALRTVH
Particulars: at 50 nM.

In general, inhibition refers to the relative decrease from the control value, in per cent.

`Cc1ccc(C(=O)c2cc(F)c(F)c(O)c2F)s1` had an inhibition in experiment [1] of 56%.

On to `Cc1c(O)cccc1C(=O)c1ccc(-c2cc(Cl)c(O)c(Cl)c2)s1`, for which the inhibition in experiment [1] came to 45%.

In the case of `O=C(c1ccc(-c2cccc(CO)c2)s1)c1cc(F)c(F)c(O)c1F`, the inhibition was determined as 22% in experiment [2] and 21% in experiment [3].

With `COc1c(C)cc(-c2ccc(C(=O)c3cc(F)c(F)c(O)c3F)s2)cc1C`, the inhibition in experiment [2] is 26.8%; in experiment [3], 22.4%.

For `COc1c(Cl)cc(-c2ccc(C(=O)c3cccc(O)c3C)s2)cc1Cl`, in experiment [1], the inhibition came out at 20%.

As to `Cc1cc(-c2ccc(C(=O)c3cccc(O)c3C)s2)cc(C)c1O`, the inhibition in experiment [1] is 46%.

Compound `COc1c(C)cc(-c2ccc(C(=O)c3cccc(O)c3C)s2)cc1C` registered an inhibition in experiment [1] of 23%.

Compound `Cc1c(O)cccc1C(=O)c1ccc(-c2ccc(O)c(Cl)c2)s1` displayed an inhibition in experiment [1] of 31%.
